The data set in a line: log P value (octanol:water). In kind it is physicochemical. The settings on record: water/n-octanol. An excerpt: The partition coefficient (P) is the ratio of concentrations of a compound in a mixture of two immiscible solvents at equilibrium. This ratio is therefore a comparison of the solubility of the solute in these two liquids. In the chemical and pharmaceutical sciences, both phases usually are solvents. Most commonly, one of the solvents is water, while the second is hydrophobic such as 1-octanol.
Log P=log 10(Partition Coefficient)
Partition Coefficient,P=[organic]/[aqueous]

Here are results for one compound from US20220387268A1, “OIL-IN-WATER MACROEMULSION” (SYMRISE AG, priority 2019, published 2022).

Molecules are shown by their SMILES.

Regarding `CC(=O)OC1CCCCC1C(C)(C)C` (stereo not shown) [AGRUMEX LC], the “log P” value is listed as 4.42.
